pIC50: −log10 of the molar value.
Each molecule was assayed against T1, PBP3 (Neisseria gonorrhoeae, UniProt Q5FAB9) (assay: not given). Settings: read-out: IC50 PBP3 (Table S1); strain ATCC 19424.
T1 sequence (Q5FAB9 22-469): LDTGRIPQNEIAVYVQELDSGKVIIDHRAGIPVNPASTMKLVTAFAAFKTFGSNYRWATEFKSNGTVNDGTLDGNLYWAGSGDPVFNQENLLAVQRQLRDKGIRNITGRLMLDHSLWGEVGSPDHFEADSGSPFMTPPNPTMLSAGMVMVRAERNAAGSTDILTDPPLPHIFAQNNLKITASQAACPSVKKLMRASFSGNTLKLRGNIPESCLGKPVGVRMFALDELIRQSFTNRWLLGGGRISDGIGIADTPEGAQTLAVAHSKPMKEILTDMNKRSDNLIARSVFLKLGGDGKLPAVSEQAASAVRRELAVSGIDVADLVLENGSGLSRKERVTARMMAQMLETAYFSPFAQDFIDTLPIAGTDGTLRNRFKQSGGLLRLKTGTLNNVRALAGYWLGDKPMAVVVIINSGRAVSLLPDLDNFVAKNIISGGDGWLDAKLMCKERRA

Structure (SMILES)	pIC50
CC1(C)S[C@@H]2[C@H](NC(=O)C(C(=O)O)c3ccccc3)C(=O)N2[C@H]1C(=O)O (stereo partly drawn) [CAR, carbenicillin]	5.77
C[C@@H](O)[C@H]1C(=O)N2C(C(=O)O)=C(S[C@@H]3CN[C@H](C(=O)Nc4cccc(C(=O)O)c4)C3)[C@H](C)[C@H]12 [ETP, ertapenem]	7.38
C[C@@H](O)[C@H]1C(=O)N2C(C(=O)O)=C(S[C@@H]3CN[C@H](C(=O)N(C)C)C3)[C@H](C)[C@H]12 [MEM, meropenem]	7.11

Same assay, conditions: read-out: IC50 PBP3; strain ATCC 19424; membrane preparation, 30 min drug then Bocillin FL

Structure (SMILES)	pIC50
CC1(C)S[C@@H]2[C@H](NC(=O)C(C(=O)O)c3ccccc3)C(=O)N2[C@H]1C(=O)O (stereo partly drawn) [CAR, carbenicillin]	5.82
CO/N=C(\C(=O)N[C@@H]1C(=O)N2C(C(=O)O)=C(CSc3nc(=O)c(=O)[nH]n3C)CS[C@H]12)c1csc(N)n1 [CRO, ceftriaxone]	6.90
C[C@@H](O)[C@H]1C(=O)N2C(C(=O)O)=C(S[C@@H]3CN[C@H](C(=O)Nc4cccc(C(=O)O)c4)C3)[C@H](C)[C@H]12 [ETP, ertapenem]	7.20
CO[C@@]1(NC(=O)Cc2cccs2)C(=O)N2C(C(=O)O)=C(COC(N)=O)CS[C@@H]21 [FOX, cefoxitin]	7.63
C[C@@H](O)[C@H]1C(=O)N2C(C(=O)O)=C(SCCN=CN)C[C@H]12 [IPM, imipenem]	7.48
CC1(C)S[C@@H]2[C@H](/N=C/N3CCCCCC3)C(=O)N2[C@H]1C(=O)O [MEC, amdinocillin]	4.44
C[C@@H](O)[C@H]1C(=O)N2C(C(=O)O)=C(S[C@@H]3CN[C@H](C(=O)N(C)C)C3)[C@H](C)[C@H]12 [MEM, meropenem]	7.28

These molecules were tested on PBP1, PBP2 and PBP3 (assay: not given). Settings: both strains; selective = IC50 at least 4-fold lower than next most inhibited PBP.

Structure (SMILES)	PBP selectivity
NC(=O)[C@@H]1CC[C@@H]2CN1C(=O)N2OS(=O)(=O)O [AVI, avibactam]	PBP3 selective binding
O=C(NC1CCNCC1)[C@@H]1CC[C@@H]2CN1C(=O)N2OS(=O)(=O)O [REL, relebactam]	PBP3 selective binding
C[C@]1(Cn2ccnn2)[C@H](C(=O)O)N2C(=O)C[C@H]2S1(=O)=O [TZ, tazobactam]	selective for PBP2

What follows are molecules tested on PBP1, PBP2 and PBP3 (assay: not given). Settings: strain ATCC 19424.
Type: binding, Neisseria gonorrhoeae ATCC 19424

Structure (SMILES)	min. IC50 (minimum observed IC50 value) [µg/mL]
C[C@@H](O)[C@H]1C(=O)N2C(C(=O)O)=C(S[C@@H]3CN[C@H](C(=O)Nc4cccc(C(=O)O)c4)C3)[C@H](C)[C@H]12 [ETP, ertapenem]	0.02
C[C@@H](O)[C@H]1C(=O)N2C(C(=O)O)=C(S[C@@H]3CN[C@H](C(=O)N(C)C)C3)[C@H](C)[C@H]12 [MEM, meropenem]	0.03

Same assay, conditions: strain ATCC 19424; selective if IC50 at least 4-fold lower than next most inhibited PBP

Structure (SMILES)	Target Selectivity
NC(=O)[C@@H]1CC[C@@H]2CN1C(=O)N2OS(=O)(=O)O [AVI, avibactam]	PBP3
C[C@@H](O)[C@H]1C(=O)N2C(C(=O)O)=C(S[C@@H]3CN[C@H](C(=O)Nc4cccc(C(=O)O)c4)C3)[C@H](C)[C@H]12 [ETP, ertapenem]	PBP2 and 3
CO[C@@]1(NC(=O)Cc2cccs2)C(=O)N2C(C(=O)O)=C(COC(N)=O)CS[C@@H]21 [FOX, cefoxitin]	PBP3
C[C@@H](O)[C@H]1C(=O)N2C(C(=O)O)=C(SCCN=CN)C[C@H]12 [IPM, imipenem]	PBP3
C[C@@H](O)[C@H]1C(=O)N2C(C(=O)O)=C(S[C@@H]3CN[C@H](C(=O)N(C)C)C3)[C@H](C)[C@H]12 [MEM, meropenem]	PBP2 and 3
O=C(NC1CCNCC1)[C@@H]1CC[C@@H]2CN1C(=O)N2OS(=O)(=O)O [REL, relebactam]	PBP3

What follows are molecules tested against T1, PBP3 (assay: not given). Settings: read-out: IC50 PBP3 (Table S1); strain ATCC 49226.

Structure (SMILES)	pIC50
CC1(C)S[C@@H]2[C@H](NC(=O)C(C(=O)O)c3ccccc3)C(=O)N2[C@H]1C(=O)O (stereo partly drawn) [CAR, carbenicillin]	6.03

Same assay, conditions: read-out: IC50 PBP3; strain ATCC 49226; membrane preparation, 30 min drug then Bocillin FL

Structure (SMILES)	pIC50
CO/N=C(\C(=O)N[C@@H]1C(=O)N2C(C(=O)O)=C(CSc3nc(=O)c(=O)[nH]n3C)CS[C@H]12)c1csc(N)n1 [CRO, ceftriaxone]	6.90
C[C@@H](O)[C@H]1C(=O)N2C(C(=O)O)=C(S[C@@H]3CN[C@H](C(=O)Nc4cccc(C(=O)O)c4)C3)[C@H](C)[C@H]12 [ETP, ertapenem]	7.68
CO[C@@]1(NC(=O)Cc2cccs2)C(=O)N2C(C(=O)O)=C(COC(N)=O)CS[C@@H]21 [FOX, cefoxitin]	7.63
C[C@@H](O)[C@H]1C(=O)N2C(C(=O)O)=C(SCCN=CN)C[C@H]12 [IPM, imipenem]	7.48
C[C@@H](O)[C@H]1C(=O)N2C(C(=O)O)=C(S[C@@H]3CN[C@H](C(=O)N(C)C)C3)[C@H](C)[C@H]12 [MEM, meropenem]	7.58

Each molecule was assayed on PBP1, PBP2 and PBP3 (assay: not given). Settings: strain ATCC 49226.
Type: binding, Neisseria gonorrhoeae ATCC 49226

Structure (SMILES)	min. IC50 (minimum observed IC50 value) [µg/mL]
C[C@@H](O)[C@H]1C(=O)N2C(C(=O)O)=C(S[C@@H]3CN[C@H](C(=O)Nc4cccc(C(=O)O)c4)C3)[C@H](C)[C@H]12 [ETP, ertapenem]	0.01
C[C@@H](O)[C@H]1C(=O)N2C(C(=O)O)=C(S[C@@H]3CN[C@H](C(=O)N(C)C)C3)[C@H](C)[C@H]12 [MEM, meropenem]	0.01

Same assay, conditions: strain ATCC 49226; selective if IC50 at least 4-fold lower than next most inhibited PBP

Structure (SMILES)	Target Selectivity
NC(=O)[C@@H]1CC[C@@H]2CN1C(=O)N2OS(=O)(=O)O [AVI, avibactam]	PBP3
CC1(C)S[C@@H]2[C@H](NC(=O)C(C(=O)O)c3ccccc3)C(=O)N2[C@H]1C(=O)O (stereo partly drawn) [CAR, carbenicillin]	PBP3
CC(C)(O/N=C(\C(=O)N[C@@H]1C(=O)N2C(C(=O)[O-])=C(C[n+]3ccccc3)CS[C@H]12)c1csc(N)n1)C(=O)O [CAZ, ceftazidime]	PBP2
C=CC1=C(C(=O)O)N2C(=O)[C@@H](NC(=O)/C(=N\OCC(=O)O)c3csc(N)n3)[C@H]2SC1 [CFM, cefixime]	PBP2
CCO/N=C(\C(=O)N[C@@H]1C(=O)N2C(C(=O)[O-])=C(Sc3nc(-c4cc[n+](C)cc4)cs3)CS[C@H]12)c1nsc(N)n1 [CPT, ceftaroline]	PBP2
C[C@@H](O)[C@H]1C(=O)N2C(C(=O)O)=C(S[C@@H]3CN[C@H](C(=O)Nc4cccc(C(=O)O)c4)C3)[C@H](C)[C@H]12 [ETP, ertapenem]	PBP2 and 3
CO[C@@]1(NC(=O)Cc2cccs2)C(=O)N2C(C(=O)O)=C(COC(N)=O)CS[C@@H]21 [FOX, cefoxitin]	PBP3
C[C@@H](O)[C@H]1C(=O)N2C(C(=O)O)=C(SCCN=CN)C[C@H]12 [IPM, imipenem]	PBP3
CC1(C)S[C@@H]2[C@H](/N=C/N3CCCCCC3)C(=O)N2[C@H]1C(=O)O [MEC, amdinocillin]	PBP2
C[C@@H](O)[C@H]1C(=O)N2C(C(=O)O)=C(S[C@@H]3CN[C@H](C(=O)N(C)C)C3)[C@H](C)[C@H]12 [MEM, meropenem]	PBP2 and 3
O=C(NC1CCNCC1)[C@@H]1CC[C@@H]2CN1C(=O)N2OS(=O)(=O)O [REL, relebactam]	PBP3
Cn1c(N)c(NC(=O)NCCN)c[n+]1CC1=C(C(=O)O)N2C(=O)[C@@H](NC(=O)/C(=N\OC(C)(C)C(=O)[O-])c3nsc(N)n3)[C@H]2SC1 [TOL, ceftolozane]	PBP2
C[C@]1(Cn2ccnn2)[C@H](C(=O)O)N2C(=O)C[C@H]2S1(=O)=O [TZ, tazobactam]	PBP2

Each molecule was assayed against T1, PBP3 (assay: not given). Settings: read-out: IC50 for PBP3; across both strains ATCC 19424 and ATCC 49226.

Structure (SMILES)	pIC50
CO[C@@]1(NC(=O)Cc2cccs2)C(=O)N2C(C(=O)O)=C(COC(N)=O)CS[C@@H]21 [FOX, cefoxitin]	7.63

Each molecule was assayed on N. gonorrhoeae ATCC 49226 (assay: MIC, CLSI broth microdilution). Settings: strain ATCC 49226; ratio between the MIC and the minimum IC50 value.

Structure (SMILES)	MIC/min. IC50
NC(=O)[C@@H]1CC[C@@H]2CN1C(=O)N2OS(=O)(=O)O [AVI, avibactam]	94.81
CC1(C)S[C@@H]2[C@H](NC(=O)C(C(=O)O)c3ccccc3)C(=O)N2[C@H]1C(=O)O (stereo partly drawn) [CAR, carbenicillin]	1.43
CC(C)(O/N=C(\C(=O)N[C@@H]1C(=O)N2C(C(=O)[O-])=C(C[n+]3ccccc3)CS[C@H]12)c1csc(N)n1)C(=O)O [CAZ, ceftazidime]	3.20
C=CC1=C(C(=O)O)N2C(=O)[C@@H](NC(=O)/C(=N\OCC(=O)O)c3csc(N)n3)[C@H]2SC1 [CFM, cefixime]	0.80
CCO/N=C(\C(=O)N[C@@H]1C(=O)N2C(C(=O)[O-])=C(Sc3nc(-c4cc[n+](C)cc4)cs3)CS[C@H]12)c1nsc(N)n1 [CPT, ceftaroline]	2.37
C[C@@H](O)[C@H]1C(=O)N2C(C(=O)O)=C(S[C@@H]3CN[C@H](C(=O)Nc4cccc(C(=O)O)c4)C3)[C@H](C)[C@H]12 [ETP, ertapenem]	0.80
CO[C@@]1(NC(=O)Cc2cccs2)C(=O)N2C(C(=O)O)=C(COC(N)=O)CS[C@@H]21 [FOX, cefoxitin]	50.00
C[C@@H](O)[C@H]1C(=O)N2C(C(=O)O)=C(SCCN=CN)C[C@H]12 [IPM, imipenem]	6.40
CC1(C)S[C@@H]2[C@H](/N=C/N3CCCCCC3)C(=O)N2[C@H]1C(=O)O [MEC, amdinocillin]	2.72
C[C@@H](O)[C@H]1C(=O)N2C(C(=O)O)=C(S[C@@H]3CN[C@H](C(=O)N(C)C)C3)[C@H](C)[C@H]12 [MEM, meropenem]	1.60
O=C(NC1CCNCC1)[C@@H]1CC[C@@H]2CN1C(=O)N2OS(=O)(=O)O [REL, relebactam]	390.84
Cn1c(N)c(NC(=O)NCCN)c[n+]1CC1=C(C(=O)O)N2C(=O)[C@@H](NC(=O)/C(=N\OC(C)(C)C(=O)[O-])c3nsc(N)n3)[C@H]2SC1 [TOL, ceftolozane]	0.93
C[C@]1(Cn2ccnn2)[C@H](C(=O)O)N2C(=O)C[C@H]2S1(=O)=O [TZ, tazobactam]	0.69

These molecules were tested on N. gonorrhoeae ATCC 19424 (assay: MIC, CLSI broth microdilution). Settings: strain ATCC 19424; ratio between the MIC and the minimum IC50 value.

Structure (SMILES)	MIC/min. IC50
NC(=O)[C@@H]1CC[C@@H]2CN1C(=O)N2OS(=O)(=O)O [AVI, avibactam]	54.94
CC1(C)S[C@@H]2[C@H](NC(=O)C(C(=O)O)c3ccccc3)C(=O)N2[C@H]1C(=O)O (stereo partly drawn) [CAR, carbenicillin]	0.25
CC(C)(O/N=C(\C(=O)N[C@@H]1C(=O)N2C(C(=O)[O-])=C(C[n+]3ccccc3)CS[C@H]12)c1csc(N)n1)C(=O)O [CAZ, ceftazidime]	1.60
C=CC1=C(C(=O)O)N2C(=O)[C@@H](NC(=O)/C(=N\OCC(=O)O)c3csc(N)n3)[C@H]2SC1 [CFM, cefixime]	0.40
CCO/N=C(\C(=O)N[C@@H]1C(=O)N2C(C(=O)[O-])=C(Sc3nc(-c4cc[n+](C)cc4)cs3)CS[C@H]12)c1nsc(N)n1 [CPT, ceftaroline]	0.21
C[C@@H](O)[C@H]1C(=O)N2C(C(=O)O)=C(S[C@@H]3CN[C@H](C(=O)Nc4cccc(C(=O)O)c4)C3)[C@H](C)[C@H]12 [ETP, ertapenem]	0.20
CO[C@@]1(NC(=O)Cc2cccs2)C(=O)N2C(C(=O)O)=C(COC(N)=O)CS[C@@H]21 [FOX, cefoxitin]	25.00
C[C@@H](O)[C@H]1C(=O)N2C(C(=O)O)=C(SCCN=CN)C[C@H]12 [IPM, imipenem]	3.20
CC1(C)S[C@@H]2[C@H](/N=C/N3CCCCCC3)C(=O)N2[C@H]1C(=O)O [MEC, amdinocillin]	0.75
C[C@@H](O)[C@H]1C(=O)N2C(C(=O)O)=C(S[C@@H]3CN[C@H](C(=O)N(C)C)C3)[C@H](C)[C@H]12 [MEM, meropenem]	0.27
O=C(NC1CCNCC1)[C@@H]1CC[C@@H]2CN1C(=O)N2OS(=O)(=O)O [REL, relebactam]	403.15
Cn1c(N)c(NC(=O)NCCN)c[n+]1CC1=C(C(=O)O)N2C(=O)[C@@H](NC(=O)/C(=N\OC(C)(C)C(=O)[O-])c3nsc(N)n3)[C@H]2SC1 [TOL, ceftolozane]	0.80
C[C@]1(Cn2ccnn2)[C@H](C(=O)O)N2C(=O)C[C@H]2S1(=O)=O [TZ, tazobactam]	0.12
